# Publication PMC6980832, “Crystal structures of Triosephosphate Isomerases from Taenia solium and Schistosoma mansoni provide insights for vaccine rationale and drug design against helminth parasites” (PLoS Neglected Tropical Diseases, 2020)
# Substrate: O=CC(O)COP(=O)(O)O
# Assay: purified protein
# Conditions: 0.1 M TEA-HCl pH 7.4, 10 mM EDTA, 0.2 mM NADH, 21 °C, G3P 0 to 5 mM, G3P to DHAP direction
protein,measurement,value
HsTPI (Homo sapiens) (protein) APSRKFFVGGNWKMNGRKQSLGELIGTLNAAKVPADTEVVCAPPTAYIDFARQKLDPKIAVAAQNCYKVTNGAFTGEISPGMIKDCGATWVVLGHSERRHVFGESDELIGQKVAHALAEGLGVIACIGEKLDEREAGITEKVVFEQTKVIADNVKDWSKVVLAYEPVWAIGTGKTATPQQAQEVHEKLRGWLKSNVSDAVAQSTRIIYGGSVTGATCKELASQPDVDGFLVGGASLKPEFVDIINAKQ,Km,610 ± 20 µM
same,kcat,4010 s⁻¹
same,kcat/Km,6.54e+06 M⁻¹ s⁻¹
